By UniProt entry, the sequences of proteins in these tests, tags left out.
UniProt P30411, whole entry: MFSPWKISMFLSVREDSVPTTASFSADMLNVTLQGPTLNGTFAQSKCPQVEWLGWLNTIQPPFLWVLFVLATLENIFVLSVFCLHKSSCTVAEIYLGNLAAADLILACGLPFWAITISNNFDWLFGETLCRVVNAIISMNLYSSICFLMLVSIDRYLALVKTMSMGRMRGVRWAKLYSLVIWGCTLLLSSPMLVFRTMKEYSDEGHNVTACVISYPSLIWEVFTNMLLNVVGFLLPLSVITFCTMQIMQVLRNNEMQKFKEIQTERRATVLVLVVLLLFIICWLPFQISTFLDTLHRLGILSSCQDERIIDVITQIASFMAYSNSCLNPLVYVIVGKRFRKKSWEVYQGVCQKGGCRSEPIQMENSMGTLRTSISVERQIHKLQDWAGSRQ
UniProt P32299, whole entry: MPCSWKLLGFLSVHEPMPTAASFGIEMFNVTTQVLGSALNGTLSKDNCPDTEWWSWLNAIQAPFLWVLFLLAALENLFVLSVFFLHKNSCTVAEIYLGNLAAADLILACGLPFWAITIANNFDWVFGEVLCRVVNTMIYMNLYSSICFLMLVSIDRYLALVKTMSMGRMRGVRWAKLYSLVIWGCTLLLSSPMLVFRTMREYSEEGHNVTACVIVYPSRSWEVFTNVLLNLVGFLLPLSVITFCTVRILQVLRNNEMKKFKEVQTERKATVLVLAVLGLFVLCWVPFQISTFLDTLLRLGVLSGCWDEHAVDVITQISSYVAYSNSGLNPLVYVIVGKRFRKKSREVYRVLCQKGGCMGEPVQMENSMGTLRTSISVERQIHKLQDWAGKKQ

In US11278504B1, “Treatment of a lionfish sting and formulations for use thereof” (priority 2019, dated 2022):

Tests used:
[1] = biological target: T1, bradykinin B2 receptor (Homo sapiens, UniProt P30411); assay: Fura-2 calcium imaging in HEK293T cells, bradykinin B2 receptor antagonist test; type: cell-based; details: HOE-140 1 mM
T1 construct: Proportion of HEK293T cells responding to BK alone and in the presence of HOE-140; endogenous in cells; host or cells: HEK293T

[2] = biological target: T2, bradykinin (BK) receptors (Mus musculus, UniProt P32299); assay: Venom-induced spontaneous pain behavior in mice pretreated with HOE-140; type: in vivo; details: 0.1 μmol/kg intraperitoneal; 44 μg venom intraplantar; P=0.067 vs saline
T2 construct: venom-elicited behavioral and cellular responses are independent of the TRPV1 or bradykinin (BK) receptors; from tissue; host or cells: living C57BL/6 mice (whole animal, behavioural read-out)

Substance: HOE-140
- Proportion of HEK293T cells responding to BK in the presence of HOE-140 ([1]; BK 100 μM): 0/85
- effect on BK-elicited rise in intracellular calcium (sample traces) ([1]; BK 100 μM): reversible blockade
- proportion of HEK293T cells responding to the venom in the presence of HOE-140 ([1]; Fisher exact test P=0.939): 66/85
- venom-elicited spontaneous pain behavior over 1 hour after HOE-140 pretreatment [2]: independent
